Reported properties for industrial, environmental and drug-like chemicals

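These are experimental values that the OPERA curators gathered from public databases to train and test their QSAR models. One number stands for a compound and property, with no spread given. How each value was measured is not recorded, so precision varies. Where a salt, mixture or single isomer is drawn, the source does not say that exactly this form was tested. Some upstream entries may be estimates or bounds without being marked so.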

Melting points are in °C.
Boiling points are in °C, nominally at 760 mmHg.
The octanol-water partition coefficient is given as log10; larger values mean a more lipophilic compound.
Water solubility is log10 of mol/L, nominally at 25 °C; higher is more soluble.
Vapor pressures (log10 mmHg) refer to near room temperature, 15 to 30 °C; higher is more volatile.
Henry's law constant (air-water partitioning) is log10 of atm·m3/mol, nominally at 25 °C.
The unbound fraction in human plasma runs from 0 (all bound) to 1 (all free).
Clint is human hepatic intrinsic clearance in µL/min per million cells; 0 means that no clearance was seen.
Cells with "–" have no entry in this list.

COc1ccc(C(=O)Nc2ccc(C3=NNC(=O)CC3C)cc2N)cc1 (centres undefined) is reported with log Kow -0.1 and log S -4.655 (log10 mol/L). For COc1ccc(C(=O)CSc2cccc(OC)c2)cc1 [1-(4-Methoxyphenyl)-2-[(3-methoxyphenyl)sulfanyl]ethan-1-one] the data give melting point 56.37 °C and log Kow 3.71 and log VP -6.378 (log10 mmHg). C/C=C/c1ccc(OC(C)=O)c(OC)c1 [Isoeugenyl acetate, (E)-] is reported with melting point 81 °C and log S -3.665 (log10 mol/L) and log VP -3.28 (log10 mmHg). The entry for CCCCC(CC)COCCO (centres undefined) [2-(2-Ethylhexyloxy)ethanol] lists melting point -104.9 °C and log Kow 2.86 and log S -2.184 (log10 mol/L) and log VP -1.678 (log10 mmHg).

Listed for O=C1CCC(=O)N1C(O)C(Cl)Cc1ccc2ncccc2c1 (centres undefined): melting point 135 °C and log S -2.202 (log10 mol/L) and log VP -6.866 (log10 mmHg). The entry for COc1cccc2nc3c4cccc5cccc(c(=O)n3c12)c54 lists melting point 253.6 °C and log Kow 4.8 and log S -6.678 (log10 mol/L). Listed for O=C1CCCCCN1SSN1CCCCCC1=O [1,1'-Disulfanediyldiazepan-2-one]: melting point 136.1 °C and log Kow 2.25 and log S -2.314 (log10 mol/L). O=C(c1ccc(O)cc1)c1ccc(C(=O)c2ccc(O)cc2)cc1 has melting point 307.9 °C and log S -6.6 (log10 mol/L).

NCCNCc1ccccc1 [N-Benzylethylenediamine] has log Kow 0.71 and log VP -2.28 (log10 mmHg). Listed for O=C(c1ccccc1)c1ccc(Cl)cc1 [4-Chlorobenzophenone]: log Kow 3.748 and log S -4.02 (log10 mol/L). For NNC(=O)c1cccc(C(=O)NN)c1 [Isophthalyl dihydrazide] the data give log S -1.677 (log10 mol/L) and log VP -9.639 (log10 mmHg). The entry for CCC(=O)c1ccc(O)cc1 [Paroxypropione] lists melting point 149 °C and log S -2.639 (log10 mol/L).

The entry for O=C(OCC(=O)N1CCC1C(=O)O)c1ccccc1 (centres undefined) [1-[(Benzoyloxy)acetyl]azetidine-2-carboxylic acid] lists melting point 150 °C and log S -2.141 (log10 mol/L). Listed for CC(=O)CC(=O)Nc1ccccc1Cl [2'-Chloroacetoacetanilide]: log Kow 1.32 and log S -2.407 (log10 mol/L) and log VP -5.951 (log10 mmHg). CC1=NN(c2cccc(S(=O)(=O)O)c2)C(=O)C1 is reported with log Kow -2.05 and log S -1.772 (log10 mol/L). CCCCc1oc2ccc([N+](=O)[O-])cc2c1C(=O)c1ccc(O)cc1 is reported with melting point 130.3 °C and log Kow 3.72 and log S -6.188 (log10 mol/L) and log VP -5.663 (log10 mmHg).

The entry for CCCC(=O)OCCc1ccccc1 [2-Phenylethyl butanoate] lists melting point -10.13 °C and log Kow 2.48 and log S -2.22 (log10 mol/L). NC(=O)N[C@H]1CC[C@H](NC(N)=O)CC1 [1,1'-(trans-1,4-Cyclohexanediyl)diurea] has log Kow -1.45 and log S -2.596 (log10 mol/L). The entry for CC(=O)OCCC(C)CC(C)(C)C (centres undefined) [3,5,5-Trimethylhexyl acetate] lists log Kow 4.6 and log S -3.989 (log10 mol/L) and log VP 0.009 (log10 mmHg). The entry for O=C(O)C1(C(=O)Nc2ccc(Cl)cc2Cl)CC1 [Cyclanilide] lists melting point 195.8 °C and log Kow 3.25 and log S -3.759 (log10 mol/L) and log VP -7.201 (log10 mmHg) and log H -9.136 (log10 atm·m3/mol) and Clint 0.34 µL/min/10^6 cells.

CN1C(CSCC(F)(F)F)Nc2cc(Cl)c(S(N)(=O)=O)cc2S1(=O)=O (centres undefined) [Polythiazide] has log S -2.933 (log10 mol/L) and plasma fu 0.15. Listed for COc1cc(C#N)cc(OC)c1O [Benzonitrile, 4-hydroxy-3,5-dimethoxy-]: melting point 127 °C and log Kow 1.33. COc1ccc(CCC#N)cc1OC [3-(3,4-Dimethoxyphenyl)propanenitrile] has melting point 47.7 °C and log Kow 0.685 and log S -1.901 (log10 mol/L) and log VP -5.046 (log10 mmHg). Listed for C=C(Cl)C(=O)OCCC(F)(F)C(F)(F)C(F)(F)C(F)(F)C(F)(F)C(F)(F)F [((Perfluorohexyl)ethyl)-2-chloropropenoate]: melting point -23 °C and log S -5.878 (log10 mol/L) and log VP -1.315 (log10 mmHg).

CCCCCCCCCCCC(=O)OCCCCCC [Hexyl laurate] has melting point -6 °C and log S -6.755 (log10 mol/L). For CC(C)(C)C(=O)C=Cc1ccc2c(c1)OCO2 [1-(1,3-Benzodioxol-5-yl)-4,4-dimethyl-1-penten-3-one] the data give BP 332 °C and log Kow 3.65 and log S -4.588 (log10 mol/L). [N-]=[N+]=C1C=C(S(=O)(=O)Cl)c2ccccc2C1=O [1-Naphthalenesulfonyl chloride, 3-diazo-3,4-dihydro-4-oxo-] is reported with log Kow 1.4 and log S -2.849 (log10 mol/L) and log VP -6.806 (log10 mmHg). Listed for CCN(CC)CCCNC(=O)c1ccc([N+](=O)[O-])cc1.Cl [N-[3-(Diethylamino)propyl]-4-nitrobenzamide hydrochloride]: melting point 69 °C and log Kow -0.99.

The entry for COc1ccc(OC(=O)c2ccc(OCCCCC3CO3)cc2)cc1 (centres undefined) [4-Methoxyphenyl 4-(4-(2-oxiranyl)butoxy)benzoate] lists melting point 78 °C and log Kow 4 and log S -5.767 (log10 mol/L) and log VP -4.725 (log10 mmHg). N#Cc1ccc(N=C(N)N)cc1 [N''-(4-Cyanophenyl)guanidine] is reported with melting point 221.2 °C and log S -1.85 (log10 mol/L) and log VP -9.218 (log10 mmHg). CC1(C)S[C@@H]2[C@H](N3C(=O)C(c4ccccc4)NC3(C)C)C(=O)N2[C@H]1C(=O)O (some centres not stated) [Hetacillin] is reported with log Kow 1.3 and log S -2.881 (log10 mol/L). The entry for CCOC1C(C)CCCC1C (centres undefined) [2-Ethoxy-1,3-dimethylcyclohexane] lists BP 174 °C and log Kow 3.97 and log S -4.343 (log10 mol/L) and log VP 0.409 (log10 mmHg).

O=C1CCCCCCCCCCC1 [Cyclododecanone] is reported with log S -3.704 (log10 mol/L) and log VP -2.318 (log10 mmHg). Listed for CCOC(=O)O[C@]1(C(=O)COC(=O)CC)CC[C@H]2[C@@H]3CCC4=CC(=O)C=C[C@]4(C)[C@H]3[C@@H](O)C[C@@]21C [Prednicarbate]: log Kow 2.9 and log S -4.939 (log10 mol/L). The entry for CC(C1CC1)C(O)c1ccc(Cl)cc1 (centres undefined) [1-(4-Chlorophenyl)-2-cyclopropyl-1-propanol] lists melting point 45.8 °C and BP 298 °C and log Kow 3.8 and log S -3.244 (log10 mol/L) and log VP -3.31 (log10 mmHg).

Extract of 2 entries:

compound	name	melting point (°C)	BP (°C)	log Kow	log S (log10 mol/L)	log VP (log10 mmHg)	log H (log10 atm·m3/mol)	plasma fu	Clint (µL/min/10^6 cells)
O=C1CCCCCN1SSN1CCCCCC1=O	1,1'-Disulfanediyldiazepan-2-one	136.1	–	2.25	-2.314	–	–	–	–
COc1ccc(C(=O)CSc2cccc(OC)c2)cc1	1-(4-Methoxyphenyl)-2-[(3-methoxyphenyl)sulfanyl]ethan-1-one	56.37	–	3.71	–	-6.378	–	–	–

Values as listed in the OPERA 2.9 repository of K. Mansouri.